The values that follow come from PubChem BioAssay AID449768 (Vanderbilt High Throughput Screening Facility, 2010).

Sequences of proteins named here, by UniProt entry; tags and fusion partners are left off.
UniProt Q01959, whole entry: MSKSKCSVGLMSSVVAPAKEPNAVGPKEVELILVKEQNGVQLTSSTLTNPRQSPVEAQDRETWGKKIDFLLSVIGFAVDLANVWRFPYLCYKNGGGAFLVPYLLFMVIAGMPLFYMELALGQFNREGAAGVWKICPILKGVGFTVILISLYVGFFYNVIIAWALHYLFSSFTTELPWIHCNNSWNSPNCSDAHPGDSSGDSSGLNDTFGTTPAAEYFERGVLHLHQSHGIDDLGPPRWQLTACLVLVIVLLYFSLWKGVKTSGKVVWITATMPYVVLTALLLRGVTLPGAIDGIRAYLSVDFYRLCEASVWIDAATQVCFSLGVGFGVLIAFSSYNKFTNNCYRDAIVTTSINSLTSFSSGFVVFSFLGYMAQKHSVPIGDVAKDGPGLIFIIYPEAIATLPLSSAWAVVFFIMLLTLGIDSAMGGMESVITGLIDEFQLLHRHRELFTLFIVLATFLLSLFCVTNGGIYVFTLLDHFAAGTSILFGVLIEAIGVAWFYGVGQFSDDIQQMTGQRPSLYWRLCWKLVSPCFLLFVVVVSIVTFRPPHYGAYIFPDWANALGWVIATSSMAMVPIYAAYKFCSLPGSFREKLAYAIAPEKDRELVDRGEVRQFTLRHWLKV

SMILES strings stand for the structures. The entries are a selection whose mix differs from that of the whole data set. Active and inactive are the calls of the source.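 Rule for the calls: active = Z score or B-score, a plate-position-corrected score, falls beyond the plate's 99.7% confidence bounds, in either direction; inactive = both scores lie inside the 99.7% bounds.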

In the assay the target is Sodium-dependent dopamine transporter (Homo sapiens) (UniProt Q01959). As to the kind of experiment: changed hDAT dopamine uptake under cocaine IC80, either direction, primary screen, cocaine antagonist project, cell-based, LLC-PK1 hDAT, [14C]-dopamine uptake, MLSMR (AID 449768).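 Note: scored against the spread of the other compound wells on the same plate.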 Conditions: LLC-PK1 hDAT cells, [14C]-dopamine uptake with cocaine IC80; at 10 µM; actives deviate in either direction.
Consider `CN1CCC(Nc2cccc(F)c2)CC1`, for which the B-score was inactive: 2.2.

Turning to `N#CC1(Nc2ccccc2)CCN(CCc2ccccc2)CC1`, the B-score is inactive: -0.485.

With `O=C(NCC1(N2CCOCC2)CCCCC1)c1cc(=O)[nH]c2ccccc12`, the B-score was inactive: -0.000505.

Consider `COc1ccc(NC2CCN(CCc3ccccc3)CC2)c(OC)c1`, for which the B-score is inactive: 1.83.

As for `O=C(NCC1(N2CCOCC2)CCCCC1)c1cc2ccccc2o1`, the B-score was inactive: 0.868.

As to `O=C(OC1CN2CCC1CC2)C1c2ccccc2Oc2ccccc21` (stereo not given), the B-score was inactive: 1.31.

Take `CCOc1ncccc1C(=O)NCC1(N2CCOCC2)CCCCC1`: the B-score is inactive: -0.00841.

On to `CCC(CO)(C(=O)OC1CN2CCC1CC2)c1ccccc1` (stereo not given), for which the B-score is inactive: -0.833.

As to `Fc1ccccc1NC1CCN(Cc2ccccc2)CC1`, the B-score was inactive: 0.652.

On to `c1ccc(CN2CCC(Nc3ccccc3)CC2)cc1`, for which the B-score is inactive: -1.21.
